## Yeast mating assay B: variants of the scFv Ab-14

From the AlphaSeq antibody data of Li et al. 2023 (doi:10.1038/s41467-023-39022-2), copy in the FLAb collection.

Target: peptide PDVDLGDISGINAS, taken from heptad repeat 2 (HR2) of SARS-CoV-2 spike.

Ab-14 is the parent antibody, in scFv form: VH, then a (GGGGS)3 linker, then VL. The heavy chain is unchanged in all variants.
VH: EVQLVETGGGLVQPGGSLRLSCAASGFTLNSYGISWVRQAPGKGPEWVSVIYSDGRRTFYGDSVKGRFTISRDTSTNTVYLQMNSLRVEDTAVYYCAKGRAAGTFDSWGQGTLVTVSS
VL: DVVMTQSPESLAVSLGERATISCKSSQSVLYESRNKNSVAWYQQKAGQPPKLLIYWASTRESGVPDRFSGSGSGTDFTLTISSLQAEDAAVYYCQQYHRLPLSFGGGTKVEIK

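The parent was found by panning a naive human phage display library on the peptide. This is the validation round: designs drawn from the data on random variants, tested in the same kind of assay. Group labels follow the data file (Ctrl: baseline library sampled from a position-specific scoring matrix, with some repeated check sequences; En: ensemble of fine-tuned language models; GP: Gaussian process model; HC: hill climbing; Gen: genetic algorithm; Gibbs: Gibbs sampling; a sequence that several methods proposed may carry one label only). The scFvs were displayed on barcoded MATa yeast, the peptide on MATalpha yeast. Mating (16 h, 30 °C) was followed by selection of diploids and sequencing of their barcodes. Each replicate has its own calibration line, from reference interactions of the BCL2 family. Each pool was mated in six replicate cultures.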

The parent's light chain CDRs are KSSQSVLYESRNKNSVA, WASTRES, QQYHRLPLS; each variant's own CDRs replace them letter for letter.
Scale: log10 of Kd in nM, estimated from mating counts; low values are strong binders.
Replicates are averaged; those with no signal do not enter the mean.
A pair that was not seen in any replicate is written "not detected"; this usually means weak binding, but a binder can also be missed.

"log10 Kd (nM), mean",seen in,CDR-L1,CDR-L2,CDR-L3,group
2.65,6 of 6,KLSKFTQNWGLNRNHIA,EESTKIM,QQYFSLPLY,En_Gibbs
1.46,5 of 6,KSSQSVLYEGKNKNSVA,WASTRES,QQYHRLPLS,Ctrl
-0.12,6 of 6,KLSQSWLYESRNKNNVA,EASTRES,QQYHRLPLS,GP_Gen
0.79,6 of 6,HISESMYYQSRNKNNIA,EMTTRER,QHYHRLPLS,En_HC
3.25,3 of 6,KLMQSLQGEPKDWYAVA,EGESATT,QQYARLPLM,En_Gibbs
-0.05,6 of 6,KISGMYQKESKNKNSVA,EMVNRED,QQYDRLPLS,En_HC
-0.24,6 of 6,KLSQSVPYESRNKNSVA,EANTRES,QQYHRLPLS,GP_Gen
1.37,6 of 6,KLSQKVLYEHRVKNSVA,NASTRES,QQYHRLPLS,GP_HC
-0.18,6 of 6,KLSQSNLYESRNKNSVA,EASTREQ,QQYHRLPLS,GP_Gen
1.34,6 of 6,KLSQSVLYESRNKNSVA,WASTRES,QQYHRLPLW,Ctrl
-0.01,6 of 6,KMSQSVLMEGRNKNSVA,DASLRES,QQYHRLPLS,GP_HC
-0.35,6 of 6,KQSQGKLYESRNKNSVA,DASTRES,QQYHRLPLS,GP_HC
0.26,6 of 6,KISQSWLYESRNKNSVA,GASTRES,QQYHRLPLS,GP_Gen
0.62,6 of 6,ILSQSVLMGSHLKNSVA,QASTRFA,QQYHRLPLS,En_HC
0.75,6 of 6,YLMQSVLYESRNKNSVA,HASLRED,QQYHRLPLS,GP_HC
0.31,6 of 6,KSSQSVLTESRNENSVA,EASTRPW,QQYHRLPLS,Ctrl
0.58,6 of 6,HIDWLNRGETLKKDDIA,NADHREQ,QQYFHLPLS,En_Gibbs
0.29,6 of 6,SITYLDNRGSQGHNNIA,SGSCRAE,QQYIRLPLI,En_Gibbs
-0.30,6 of 6,KLPQGVLYESRNKNSVA,GASVRES,QQYHRLPLS,GP_HC
0.95,6 of 6,MLGMTVMQGMVSRNNVA,QEETRAE,QQYHHLPLS,En_HC
1.09,6 of 6,AISQMTEPAAQNSSSIA,EADRVTE,QQYSKLPLT,En_Gibbs
-0.28,6 of 6,HSSPSVLYESRNKNNVA,NASTREE,QQYHRLPLS,GP_HC
not detected,0 of 6,KISQTFNVGTKNSNSLA,EMSTRGF,QDYHRLPLS,En_HC
1.17,6 of 6,NITQQGDNMGDQRANVA,NGETLEH,QQYAHLPLL,En_Gibbs
-0.02,6 of 6,KLSQSVDYESRNKNSVA,NAQTRMS,QQYHRLPLS,GP_Gibbs
0.28,6 of 6,KSSPSQLYEDREFNSVA,NASQRES,QQYHRLPLS,GP_Gibbs
-0.41,6 of 6,KVSQSWLKESRNKNSVA,EASTRLS,QQYHRLPLS,GP_HC
0.70,6 of 6,TLMHHQDYQGEIKKSIA,NAIIKEE,QQYSRLPLA,En_Gibbs
2.62,3 of 6,RLSESAHFESRKKNSVA,ENSTRES,QQYDHLPLS,En_HC
0.16,6 of 6,KIGQLTTYHSQVGNSIA,QTSTREE,QQYHRLPLS,En_HC
0.40,6 of 6,KSSQSFLYEDRNKNSVA,WASTRVS,QDYHRLPLS,Ctrl
-0.33,6 of 6,KLSQSVLQESRNKNSVA,NASTRES,QQYHRLPLS,GP_Gen
1.54,6 of 6,KSSQSVLEESRNKNSVA,WASTRES,QQYHRLPLS,Ctrl
0.54,6 of 6,KLQQSVQYESRNKNSVA,HASTRES,QQYHRLPLS,GP_Gen
1.31,5 of 6,MISQLMNMGQFAINSVA,QASQRCN,QQYDRLPLM,En_Gen
1.41,6 of 6,KSSQSVLYESRNKNSVA,AASTRET,QQYHRLPLS,Ctrl
-0.62,6 of 6,KLGQSVAMTSRNKNNVA,DLNERER,QQYYRLPLS,En_HC
0.58,6 of 6,KNSQSVLYESGNKNSVA,WASTRES,QQYHRLPLS,Ctrl
not detected,0 of 6,KSSQSMLYEIRNKNSVA,WASTRES,QQYHRLPLS,Ctrl
-0.12,6 of 6,KMYQSVLYESRNKNSVA,NASQRES,QQYHRLPLS,GP_Gen
1.90,3 of 6,KSSTSVMYESRNKNSVA,WATTRES,QQYHRLPLS,Ctrl
0.24,6 of 6,KVLQSVLQEDRNSNSVA,NASTREL,QQYHRLPLS,GP_Gibbs
0.47,6 of 6,KSYQSVLYESRDKNSVA,HASTRCD,QQYHRLPLS,GP_HC
0.20,6 of 6,KIGGVTNGMSRNKNSVA,EQQTRED,QQYNRLPLS,En_HC
0.56,6 of 6,KLYQSMGYLSRNKQSIA,DMSRREN,QQYHRLPLS,En_HC
0.60,6 of 6,HSSPSVEYESRNKNSVA,NASWRES,QQYHRLPLS,GP_HC
-0.43,6 of 6,KCDQSWGYESRNKNNVA,NASQRES,QQYHRLPLS,GP_Gibbs
0.13,6 of 6,KVFQSGPYEQRNQNSVA,SASTREN,QQYHRLPLS,GP_Gibbs
0.12,6 of 6,KVQQSWLYESRNSNNVA,NASKRES,QQYHRLPLS,GP_Gibbs
0.71,6 of 6,KISYMGEHFSTNHSAIA,QASTRET,QQYHRLPIS,En_HC
0.45,6 of 6,KSSWSVLNESRNKNSVA,DASTRMS,QQYHRLPLS,GP_HC
0.12,6 of 6,KLPQSHLYESRNKNSVA,GASTRES,QQYHRLPLS,GP_Gen
0.35,6 of 6,KQSQSDEGEQRNKNSVA,EASTRCM,QQYHRLPLS,GP_Gibbs
0.73,6 of 6,HITYGMQVAGRHSKSIA,QAETREK,QQYDRLPLT,En_Gen
-0.17,6 of 6,KSSQSWLYESRNKNSVA,GASTREY,QQYHRLPLS,GP_HC
1.18,6 of 6,KFMYSVLYEERNQNSVA,NASQRES,QQYHRLPLS,GP_Gibbs
1.90,6 of 6,MISQLMNMGTFAINSVA,QASIRNE,QQYDRLPLT,En_Gen
1.69,6 of 6,MLKMENEEFNQDKNSVA,EAVEKES,QQYHRLPII,En_Gibbs
0.43,6 of 6,KLWGRCMDGELINYNVA,NGRLAVQ,QQYDRLPLS,En_Gibbs
1.47,6 of 6,KSSQSVTYESSNKNSVA,WASTRES,QQYHRLPLS,Ctrl
1.07,6 of 6,MFSQGVMVGWLTRNSVA,NSETRES,QQYHRLPLS,En_HC
0.36,6 of 6,MLTRFNLENQGVSNNIA,DTNQVQE,QQYFRLPFA,En_Gibbs
0.49,6 of 6,KISGLYNFAQTNKNSIA,EMTTRES,QHYHRLPLS,En_HC
2.17,5 of 6,KSSQSVYSESRNKNSVA,WASTRES,QQYHRLPLS,Ctrl
0.42,6 of 6,KSSWSVLYESNNKNSVA,AASTRED,QQYHRLPLS,GP_HC
not detected,0 of 6,KIWGSPLEGQSELQAVA,QAEVLRQ,QQYNMLPLS,En_Gibbs
2.45,6 of 6,KSSHSVLYESRNCNSVA,WASTRES,QQYHRLPLS,Ctrl
0.71,6 of 6,KFHMGWEMGSRKVDNIA,EANLRFS,QQYNRLPLF,En_Gibbs
-0.04,6 of 6,KVSQSVLYESRNPNSVA,NASTRES,QQYHRLPLS,GP_Gen
0.22,6 of 6,KLSQSDLYESRNKNSVA,NASTRSS,QQYHRLPLS,GP_Gen
1.10,5 of 6,TVSQVHEMLSHTKNSVA,DMNTRES,QQYDRLPLS,En_HC
1.90,1 of 6,KSGQSVLYDSLNKNSVA,WASTRES,QQYHRLPLS,Ctrl

The last 5 entries again:

| CDR-L1 | CDR-L2 | CDR-L3 | group | log10 Kd (nM), mean | seen in |
|---|---|---|---|---|---|
| KFHMGWEMGSRKVDNIA | EANLRFS | QQYNRLPLF | En_Gibbs | 0.71 | 6 of 6 |
| KVSQSVLYESRNPNSVA | NASTRES | QQYHRLPLS | GP_Gen | -0.04 | 6 of 6 |
| KLSQSDLYESRNKNSVA | NASTRSS | QQYHRLPLS | GP_Gen | 0.22 | 6 of 6 |
| TVSQVHEMLSHTKNSVA | DMNTRES | QQYDRLPLS | En_HC | 1.10 | 5 of 6 |
| KSGQSVLYDSLNKNSVA | WASTRES | QQYHRLPLS | Ctrl | 1.90 | 1 of 6 |

The parent sequence was in this pool as ten entries: three were never detected, three once, and four in most replicates, with averages from 0.34 to 2.37.
The range of this assay differs from that of the first round, and the authors advise against merging the two.
As a blank, each scFv also met three strains without target: over all light chain designs, 4% of these pairings were detected, typically at 2.64 and seldom below 1.59.
In the paper, a design with two or fewer of six values counts as a poor binder.